Consider one molecule from paper PMC3142473 (Journal of medicinal chemistry, 2008).

The test system of the data set is Sprague–Dawley rats. The note with it: 300 mg/kg ip.

For `CC(C(O)c1ccc(O)cc1)N1CCC(Cc2ccccc2)CC1` (stereo not shown) [ifenprodil], the deaths result is on record as “Three of the four animals in our study died”.
